# Reference: PubChem BioAssay AID488837 (National Center for Advancing Translational Sciences (NCATS), 2010)
# By UniProt entry, the sequences of proteins in these tests, tags left out.
# UniProt O00167, whole entry: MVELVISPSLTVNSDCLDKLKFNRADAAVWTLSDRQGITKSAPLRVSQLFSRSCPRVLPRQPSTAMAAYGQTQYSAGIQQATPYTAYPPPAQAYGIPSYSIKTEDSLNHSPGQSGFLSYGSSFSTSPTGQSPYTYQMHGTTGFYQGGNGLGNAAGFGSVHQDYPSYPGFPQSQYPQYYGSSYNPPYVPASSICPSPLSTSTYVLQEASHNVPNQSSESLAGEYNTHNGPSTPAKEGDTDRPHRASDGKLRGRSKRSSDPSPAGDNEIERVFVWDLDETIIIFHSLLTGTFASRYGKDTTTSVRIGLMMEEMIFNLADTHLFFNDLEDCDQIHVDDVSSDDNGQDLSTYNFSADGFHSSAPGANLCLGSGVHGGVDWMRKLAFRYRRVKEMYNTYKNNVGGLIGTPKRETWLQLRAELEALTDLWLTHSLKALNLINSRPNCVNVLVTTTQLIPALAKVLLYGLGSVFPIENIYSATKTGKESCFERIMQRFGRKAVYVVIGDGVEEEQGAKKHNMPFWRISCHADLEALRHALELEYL
# The entries are a selection whose mix differs from that of the whole data set. Activity calls are given as the source filed them. The call rests on the fitted dose curve; in most records, active means well fitted inhibition curve with a large enough effect; inconclusive means small, poorly fitted or top-dose-only effect, or effect the other way; inactive means flat fitted curve, though single readings scatter.
# Biological target: Protein phosphatase EYA2 (Homo sapiens) (UniProt O00167)
# Experiment: qHTS Assay for Inhibitors of the Phosphatase Activity of Eya2
# Conditions: recombinant Eya2, OMFP fluorescence dephosphorylation (OMFP is methylfluorescein phosphate); at 76.9 µM (top of the series)
# Excerpt: The Eya family of proteins are essential co-activators of the Six1 transcription factor. Six1 is a developmental gene that is abnormally re-expressed in a large percentage of breast cancers. This over-expression plays a causal role in the initiation and metastatic development of breast cancers. The Eya family of proteins was also found to contain a unique HAD phosphatase domain with protein tyrosine phosphatase activity which can potentially play a role in Six1-mediated breast tumorigenesis. […] We have developed and optimized a 1536 well fluorescence-based HTS assay targeting the phosphatase activity of Eya2. Inhibitors found against Eya2 could serve as potential therapeutic tools to inhibit Six1-mediated breast tumorigenesis and to increase the efficiency of radiation and certain chemo therapy. These inhibitors could also be used as chemical probes to study the function of Eya2's phosphatase activity and its role in Six1-mediated breast tumorigenesis.
# The Eya2 enzyme was kindly provided by the laboratory of Dr. Rui Zhao. The 3-O-methyl-fluorescein phosphate (OMFP) substrate and all buffer reagents were purchased from Sigma Aldrich. qHTS Assay Setup: 1. Buffer- 50 mM HEPES pH 7.5, 50 mM NaCl, 5 uM MgCl2, 0.05% BSA, 1 mM DTT. 2. OMFP Stock- 10 mM solution prepared in 100% DMSO and stored in single use aliquots at -20C. […] Read on ViewLux using Excitation = 485 nm, Emission = 525 nm
# On the % scale 0 is the no-effect control and ±100 the full control effect.
row,SMILES,"activity, negative = inhibition"
1,CCC(=O)N(c1ccccc1)C1(COC)CCN(CCc2cccs2)CC1,inactive: -36.3%
2,CCC(=O)N(c1ccccc1)C1(COC)CCN(CCn2nnn(CC)c2=O)CC1,inactive: -9.39%
